{"source": "patent US7419481B2", "about": "“Apparatus and method for piercing skin with microprotrusions” (ALZA Corporation, priority 2001, dated 2008)", "key": {"[1]": {"details": "impact applicator 0.2 J/cm^2 in less than 10 msec vs 2 kg/cm^2 manual pressure; 5 seconds and 1 hour contact; 214 μm microprojections; FIG. 7"}, "[2]": {"details": "360 μm microprotrusions, 2 cm^2, 8 mm skin biopsy, fluorimetry"}}, "note": "Like-named read-outs stand apart in the source and are kept apart here.", "data": [{"substance": "ovalbumin", "values": [{"measurement": "amount of ovalbumin delivered (M), impact vs manual application", "setting": "[1]", "result": "higher delivery following impact applciation as compared to manual application"}, {"measurement": "total amount of ovalbumin delivered into the skin (average)", "setting": "[2]; impact applicator, 0.42 J in less than 10 msec, system removed after 5 seconds", "result": 30.1, "unit": "µg"}, {"measurement": "total amount of ovalbumin delivered into the skin (average)", "setting": "[2]; manual application, 2 kg/cm^2 pressure held 5 seconds", "result": 6.6, "unit": "µg"}]}]}
